The test system of experiment [1] is Nucleic Acid. The experiment can be described thus: Ratio of drug level in rat liver after 6 hrs to EC50 for HCV isolate Con1 in presence of 40% human serum. The format is tissue-based.
In experiment [2] the test system is Nucleic Acid. The experiment in a line: Ratio of drug level in rat liver after 12 hrs to EC50 for HCV isolate Con1 in presence of 40% human serum. The class given is tissue-based.

SMILES strings stand for the structures.

Consider `CC(C)CC[C@@]1(C)C(=O)C(C2=NS(=O)(=O)c3cc(NS(C)(=O)=O)ccc3N2)=C(O)c2ccccc21`, for which the Ratio turned out to be 175 in experiment [1] and 68 in experiment [2].

The values are drawn from ChEMBL document CHEMBL1152770, “Inhibitors of hepatitis C virus polymerase: synthesis and biological characterization of unsymmetrical dialkyl-hydroxynaphthalenoyl-benzothiadiazines” (J Med Chem, 2009).
